Ab-91 heavy chain CDR variants: yeast mating affinities

Target: peptide PDVDLGDISGINAS, taken from heptad repeat 2 (HR2) of SARS-CoV-2 spike.

Each scFv is VL, a (GGGGS)3 linker, VH, as in the parent Ab-91, and differs from it in the CDRs of the heavy chain only.
VL: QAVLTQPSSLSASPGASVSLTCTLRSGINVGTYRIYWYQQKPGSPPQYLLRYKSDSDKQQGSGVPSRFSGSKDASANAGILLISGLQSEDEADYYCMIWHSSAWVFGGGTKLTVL
VH: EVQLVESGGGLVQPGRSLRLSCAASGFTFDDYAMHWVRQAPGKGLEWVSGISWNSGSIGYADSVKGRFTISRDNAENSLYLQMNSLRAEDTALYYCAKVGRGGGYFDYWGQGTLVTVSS

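Library AAYL51 holds single substitutions and randomly drawn double and triple substitutions in the CDRs. The scFvs were displayed on barcoded MATa yeast, the peptide on MATalpha yeast. The frequency of each diploid, read from paired DNA barcodes, reflects how well the two displayed proteins bind. Scores were corrected for input abundance and mapped to Kd with protein pairs of known affinity run in the same pool. The assay was run in three technical replicates.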

Positions count from residue 1 of the parent VH; T28H puts H in place of T.
Every variant below is changed at T28 of the VH (sequential numbering).
Scale: log10 of Kd in nM, estimated from mating counts; low values are strong binders.
The mean shown is taken over the replicates in which the pair was detected.
Where no diploid with the target was found in any replicate, the entry reads "no signal": below detection, most likely a poor binder, though not proof of it.
Order: sorted from the lowest average up, undetected variants last.
Background: pairings of library AAYL51 with three empty control strains gave a value in 21% of cases (median 4.54, 5th percentile 3.26). Values in that range, when seen in few replicates, are hard to tell from nonspecific mating.
For reference, the parent read 1.86 as the reference entry and 0.88 as a member of this library.

* T28H -> 0.57 (3 of 3 replicates)
* T28Y F106P Y108S -> 0.97 (3 of 3 replicates)
* T28M D30N Y108Q -> 1.37 (3 of 3 replicates)
* T28Y -> 1.63 (3 of 3 replicates)
* T28L Y108S -> 1.65 (3 of 3 replicates)
* T28Q D30K G102Q -> 2.21 (3 of 3 replicates)
* T28V S57C I58E -> 2.31 (3 of 3 replicates)
* T28N D30F Y108H -> 2.51 (3 of 3 replicates)
* T28M W53K D62W -> 3.19 (1 of 3 replicates)
* T28C M34H G102D -> 3.52 (1 of 3 replicates)
* T28Y N54G -> 3.67 (3 of 3 replicates)
* G26Y T28E Y108P -> 3.72 (3 of 3 replicates)
* T28A -> 3.74 (3 of 3 replicates)
* T28I W53D Y105V -> 3.94 (2 of 3 replicates)
* T28L S57H -> 4.03 (2 of 3 replicates)
* T28Y S52V R101L -> 4.16 (1 of 3 replicates)
* T28F I58H F106V -> 4.23 (1 of 3 replicates)
* G26D T28V Y105S -> 4.82 (1 of 3 replicates)
* T28V G104L -> 5.01 (2 of 3 replicates)
* T28S D31L F106A -> 5.01 (2 of 3 replicates)
* T28W F29C Y60D -> 5.06 (1 of 3 replicates)
* T28Q I58A D107I -> 5.42 (1 of 3 replicates)
* T28Q G103C Y108T -> 5.57 (1 of 3 replicates)
* T28N I51M G100E -> 5.59 (1 of 3 replicates)
* T28E I58A V99C -> no signal (0 of 3 replicates)
* T28Y S55I G56K -> no signal (0 of 3 replicates)
* T28Q S55L A61M -> no signal (0 of 3 replicates)
* T28E A33K N54T -> no signal (0 of 3 replicates)
* F27G T28P M34E -> no signal (0 of 3 replicates)
* T28C G56H Y60D -> no signal (0 of 3 replicates)
* T28V A33L I58F -> no signal (0 of 3 replicates)
* T28Q G50M V64Y -> no signal (0 of 3 replicates)
* G26L T28A Y32K -> no signal (0 of 3 replicates)
* T28P D30Y V64C -> no signal (0 of 3 replicates)
* T28M G56S D107F -> no signal (0 of 3 replicates)
* T28E F29H G104D -> no signal (0 of 3 replicates)
* T28F H35E I58R -> no signal (0 of 3 replicates)
* T28E D31P -> no signal (0 of 3 replicates)
* T28E S52P W53V -> no signal (0 of 3 replicates)

Again, the first 6 entries without any signal:

changes,mean log10 Kd (nM),detected
T28E I58A V99C,no signal,0 of 3
T28Y S55I G56K,no signal,0 of 3
T28Q S55L A61M,no signal,0 of 3
T28E A33K N54T,no signal,0 of 3
F27G T28P M34E,no signal,0 of 3
T28C G56H Y60D,no signal,0 of 3

Source: Engelhart et al. 2022 (doi:10.1038/s41597-022-01779-4), MIT Lincoln Laboratory and A-Alpha Bio; data file from the FLAb repository.